Experimental data taken from ChEMBL document CHEMBL3430320, “Prediction of Thorough QT study results using action potential simulations based on ion channel screens” (J Pharmacol Toxicol Methods, 2014).

Amino acid sequences for entries named in this document (tags omitted). A change or cut given only in a name is not applied to a line headed by its entry.
UniProt Q12809: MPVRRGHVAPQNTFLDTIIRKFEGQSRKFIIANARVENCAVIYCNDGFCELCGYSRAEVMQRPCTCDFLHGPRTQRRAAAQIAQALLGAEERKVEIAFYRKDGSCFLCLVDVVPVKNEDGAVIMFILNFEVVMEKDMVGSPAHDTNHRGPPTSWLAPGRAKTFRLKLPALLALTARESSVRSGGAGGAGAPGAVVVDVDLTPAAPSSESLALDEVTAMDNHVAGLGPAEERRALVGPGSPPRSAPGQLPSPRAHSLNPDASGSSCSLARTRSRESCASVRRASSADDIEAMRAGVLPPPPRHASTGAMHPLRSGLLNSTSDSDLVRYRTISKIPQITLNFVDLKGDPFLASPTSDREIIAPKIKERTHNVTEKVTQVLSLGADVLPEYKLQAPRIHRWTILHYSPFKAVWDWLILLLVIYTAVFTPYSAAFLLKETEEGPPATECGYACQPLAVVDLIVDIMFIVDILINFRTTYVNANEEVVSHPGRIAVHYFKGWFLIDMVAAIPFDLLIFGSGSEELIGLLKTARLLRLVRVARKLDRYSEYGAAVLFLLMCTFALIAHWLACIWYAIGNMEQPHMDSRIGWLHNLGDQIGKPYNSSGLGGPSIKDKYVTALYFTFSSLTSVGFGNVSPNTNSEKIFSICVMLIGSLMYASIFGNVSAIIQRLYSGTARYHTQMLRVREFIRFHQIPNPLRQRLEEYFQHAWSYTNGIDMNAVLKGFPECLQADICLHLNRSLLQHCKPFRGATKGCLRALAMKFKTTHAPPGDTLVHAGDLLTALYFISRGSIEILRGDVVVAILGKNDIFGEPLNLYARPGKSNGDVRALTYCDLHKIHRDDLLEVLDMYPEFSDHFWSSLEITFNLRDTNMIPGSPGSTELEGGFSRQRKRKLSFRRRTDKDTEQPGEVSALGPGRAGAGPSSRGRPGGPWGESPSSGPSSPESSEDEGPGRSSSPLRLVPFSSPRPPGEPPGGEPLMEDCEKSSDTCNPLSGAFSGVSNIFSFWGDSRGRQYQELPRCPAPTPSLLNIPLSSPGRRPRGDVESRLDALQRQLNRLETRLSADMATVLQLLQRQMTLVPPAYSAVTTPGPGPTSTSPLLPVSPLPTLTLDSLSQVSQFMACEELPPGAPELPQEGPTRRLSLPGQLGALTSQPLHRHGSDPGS

How the values were obtained:
[1] = target: T1, Voltage-gated inwardly rectifying potassium channel KCNH2 (Homo sapiens, UniProt Q12809); test: Inhibition of rapid delayed inward rectifying potassium current (IKr) in Chinese hamster ovary (CHO) K1 cells stably expressing hERG measured using IonWorks Quattro automated patch clamp platform; format: functional, cell-based, Cricetulus griseus
[2] = target: T1, Voltage-gated inwardly rectifying potassium channel KCNH2; test: Inhibition of rapid delayed inward rectifying potassium current (IKr) in Chinese hamster ovary (CHO) cells stable expressing hERG measured using IonWorks Barracuda automated patch clamp platform; format: functional, cell-based, Cricetulus griseus
[3] = target: T1, Voltage-gated inwardly rectifying potassium channel KCNH2; test: Inhibition of rapid delayed inward rectifying potassium current (IKr) measured using manual patch clamp assay; format: functional

SMILES	pIC50 [1]	pIC50 [2]	IC50 [1] [µM]	IC50 [3] [µM]
C[C@@H](O)[C@H]1C(=O)N2C(C(=O)O)=C(S[C@@H]3CN[C@H](CNS(N)(=O)=O)C3)[C@H](C)[C@H]12 [DORIPENEM]	2.1	–	–	–
Cc1cn(-c2cc(NC(=O)c3ccc(C)c(Nc4nccc(-c5cccnc5)n4)c3)cc(C(F)(F)F)c2)cn1 [NILOTINIB]	–	Inactive	63.1	0.126
N[C@@H](CC(=O)N1CCn2c(nnc2C(F)(F)F)C1)Cc1cc(F)c(F)cc1F [SITAGLIPTIN]	–	–	–	158
